Laboratory results: patent US20260028365A1 (BIOGEN MA INC., priority 2022, published 2026)
Where two headings read alike, the source gives them in different places.

The chains behind the UniProt entries cited, without tags or fusion partners. Residues count along the entry.
UniProt P29597, whole entry: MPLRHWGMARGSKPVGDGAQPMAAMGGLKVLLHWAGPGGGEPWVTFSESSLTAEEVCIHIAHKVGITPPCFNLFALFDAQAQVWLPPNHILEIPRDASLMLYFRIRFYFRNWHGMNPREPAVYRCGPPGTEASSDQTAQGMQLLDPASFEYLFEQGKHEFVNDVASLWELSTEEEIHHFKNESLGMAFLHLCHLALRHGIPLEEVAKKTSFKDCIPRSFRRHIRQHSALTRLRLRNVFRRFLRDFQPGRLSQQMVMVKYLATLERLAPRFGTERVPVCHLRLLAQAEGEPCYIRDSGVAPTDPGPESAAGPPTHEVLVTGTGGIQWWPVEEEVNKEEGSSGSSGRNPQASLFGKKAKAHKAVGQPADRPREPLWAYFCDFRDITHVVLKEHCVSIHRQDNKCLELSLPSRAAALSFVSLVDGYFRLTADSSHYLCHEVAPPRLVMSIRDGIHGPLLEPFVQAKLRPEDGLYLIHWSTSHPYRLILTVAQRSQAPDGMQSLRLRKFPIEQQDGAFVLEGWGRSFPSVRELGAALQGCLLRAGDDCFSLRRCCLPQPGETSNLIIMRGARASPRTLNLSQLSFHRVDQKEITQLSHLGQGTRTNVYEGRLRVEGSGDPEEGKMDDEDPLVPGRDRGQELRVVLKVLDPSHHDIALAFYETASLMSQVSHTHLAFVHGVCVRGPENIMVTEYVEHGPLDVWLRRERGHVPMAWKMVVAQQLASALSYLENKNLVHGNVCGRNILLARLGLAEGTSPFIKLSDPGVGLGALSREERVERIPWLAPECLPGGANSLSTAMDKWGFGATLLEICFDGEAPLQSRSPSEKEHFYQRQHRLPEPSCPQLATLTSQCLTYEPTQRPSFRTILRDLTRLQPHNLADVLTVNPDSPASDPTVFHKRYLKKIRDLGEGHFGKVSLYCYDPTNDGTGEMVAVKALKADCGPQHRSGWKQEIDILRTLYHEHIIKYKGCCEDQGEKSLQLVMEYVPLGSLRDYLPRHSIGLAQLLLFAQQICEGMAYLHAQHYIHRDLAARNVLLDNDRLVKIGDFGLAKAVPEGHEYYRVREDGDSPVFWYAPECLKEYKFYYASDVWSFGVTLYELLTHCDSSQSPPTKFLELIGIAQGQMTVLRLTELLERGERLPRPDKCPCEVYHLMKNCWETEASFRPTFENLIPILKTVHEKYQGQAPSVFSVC
UniProt P29597, 575-876 limits assumed: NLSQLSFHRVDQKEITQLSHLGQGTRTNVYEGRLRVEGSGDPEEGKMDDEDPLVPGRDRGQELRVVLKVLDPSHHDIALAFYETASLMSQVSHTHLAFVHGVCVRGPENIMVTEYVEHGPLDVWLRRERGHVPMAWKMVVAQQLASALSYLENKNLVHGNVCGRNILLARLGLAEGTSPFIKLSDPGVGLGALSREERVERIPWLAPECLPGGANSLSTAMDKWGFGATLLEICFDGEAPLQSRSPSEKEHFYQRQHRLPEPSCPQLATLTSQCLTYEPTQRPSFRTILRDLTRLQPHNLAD
UniProt P23458, whole entry: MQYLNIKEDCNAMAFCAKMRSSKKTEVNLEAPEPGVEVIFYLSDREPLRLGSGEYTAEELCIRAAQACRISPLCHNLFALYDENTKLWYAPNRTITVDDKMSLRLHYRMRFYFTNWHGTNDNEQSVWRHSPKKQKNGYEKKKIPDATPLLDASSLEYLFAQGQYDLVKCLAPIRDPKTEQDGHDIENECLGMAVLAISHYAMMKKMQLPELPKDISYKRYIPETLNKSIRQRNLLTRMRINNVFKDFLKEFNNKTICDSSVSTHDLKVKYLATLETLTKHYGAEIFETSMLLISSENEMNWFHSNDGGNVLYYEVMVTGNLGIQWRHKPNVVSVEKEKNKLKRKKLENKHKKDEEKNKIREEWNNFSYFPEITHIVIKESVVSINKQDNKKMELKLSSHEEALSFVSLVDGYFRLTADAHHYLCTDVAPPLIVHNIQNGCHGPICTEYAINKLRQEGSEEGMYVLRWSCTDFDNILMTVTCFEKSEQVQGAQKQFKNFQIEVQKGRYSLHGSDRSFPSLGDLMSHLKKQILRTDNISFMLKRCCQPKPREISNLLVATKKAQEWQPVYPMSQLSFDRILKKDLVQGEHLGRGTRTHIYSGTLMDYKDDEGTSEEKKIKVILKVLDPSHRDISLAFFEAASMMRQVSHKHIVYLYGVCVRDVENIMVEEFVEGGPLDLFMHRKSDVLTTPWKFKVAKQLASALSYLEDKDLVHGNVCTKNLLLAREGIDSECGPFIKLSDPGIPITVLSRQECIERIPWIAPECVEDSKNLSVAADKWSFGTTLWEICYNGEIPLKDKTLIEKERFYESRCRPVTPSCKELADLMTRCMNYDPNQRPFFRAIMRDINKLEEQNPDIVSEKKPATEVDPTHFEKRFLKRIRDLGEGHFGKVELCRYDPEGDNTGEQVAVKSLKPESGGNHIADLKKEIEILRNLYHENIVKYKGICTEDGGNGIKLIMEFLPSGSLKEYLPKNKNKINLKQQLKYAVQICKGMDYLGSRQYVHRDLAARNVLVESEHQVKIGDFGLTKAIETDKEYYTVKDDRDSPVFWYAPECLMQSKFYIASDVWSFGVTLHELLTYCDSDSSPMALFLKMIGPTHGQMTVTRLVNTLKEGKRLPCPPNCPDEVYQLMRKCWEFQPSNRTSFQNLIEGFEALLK

Assays:
Tyk2 = Tyk2 (Homo sapiens (Human), UniProt P29597); assay: pSTAT4 Cell Assay (MSD, NK92 cells)
Description: The inhibitory potency of compounds of the disclosure against the Tyk2 kinase activity on STAT4 was evaluated using an MSD-platform plate-based assay format. NK92 cells natively expressing STAT4 and Tyk2 were serum-starved to reduce background phosphorylation levels, then cells were treated compounds for 1 hr with a 10-point four-fold dilution series starting at 10 μM. Cells were then stimulated with 30 ng/mL […] for 15 minutes. […] The data were normalized and the percent activity versus log concentration of compound were fitted with a 4-parameter logistic model to generate to generate IC50 curves.

JH2 domain of human Tyk2 = JH2 domain of human Tyk2 (Homo sapiens (Human), UniProt P29597); assay: JH2 Biochemical Assay (TR-FRET probe displacement); conditions: read-out: TYK2-JH2 IC50
Description: The inhibitory potency of compounds of the disclosure against the kinase activity of recombinantly generated JH2 domain of human Tyk2 was evaluated in a plate-based assay using a TR-FRET assay platform. Briefly, 2 nM of recombinant JH2 domain [10×His-tagged TYK2 JH2 domain (amino acid 575-876)] was combined with 2 nM probe ((S)-6-amino-9-(2-carboxy-4-((1-(3-(8-methyl-5-(methylamino)-8H-imidazo[4,5-d]thiazolo[5,4-b]pyridin-2-yl)phenyl)ethyl)carbamoyl)phenyl)-3-iminio-5-sulfo-3H-xanthene-4-sulfonate), 0.1 nM Tb-labeled anti-His antibody, and compounds of disclosure for 60 minutes. Compounds are tested at either 10 μM or 1 μM top concentration, 10 points of 3-fold dilution. The TR-FRET signal inversely correlates to the amount of probe displaced by compounds and signal was calculated by taking the ratio of fluorescence at 520 nm and 495 nm. The data was normalized and the percent activity versus log concentration of compound was fitted with a 4-parameter logistic model to generate IC50 curves.

JAK1 = JAK1 (Homo sapiens (Human), UniProt P23458); assay: pSTAT3 Cell Assay (MSD, TF1 cells); conditions: read-out: JAK1, IL-6 stimulated
Description: The inhibitory potency of compounds of the disclosure against the JAK1 kinase activity on STAT3 was evaluated using an MSD-platform plate-based assay format. TF1 cells natively expressing STAT3 and JAK1 were serum-starved to reduce background phosphorylation levels, then cells were treated with compounds of the disclosure for 1 hour with a 10-point four-fold dilution series starting at 10 μM. Cells were then stimulated with 30 ng/mL interleukin 6 (IL-6) for 15 minutes. Cells were lysed and pSTAT3 levels were quantitated using an MSD plate-based assay with anti-STAT3 antibodies. The data were normalized and the percent activity versus log concentration of compound was fitted with a 4-parameter logistic model to generate IC50 curves.

[1] = TR-FRET probe displacement, JH2 domain
[2] = JH2 domain of human Tyk2, TR-FRET probe displacement

CCc1cc(Nc2cc(NC(C)=O)ncc2-c2ccnc(CN3CC4CC(C3)O4)n2)nc(C(C)(F)F)n1
IC50 (Tyk2; read-out: TYK2): > 1000 nM

CC(=O)Nc1cc(Nc2cc(C)nc(C34COC(C3)C4)n2)c(-c2ccnc(C)n2)cn1
IC50 (JH2 domain of human Tyk2; [1]): < 10 nM | IC50 (Tyk2; read-out: TYK2): 10 to 100 nM | IC50 (JAK1): > 1000 nM

CC(=O)Nc1cc(Nc2ccnc(C(C)(F)F)n2)c(-c2ccc(N3CC4(COC4)C3)nn2)cn1
IC50 (JH2 domain of human Tyk2; [1]): < 10 nM | IC50 (Tyk2; read-out: TYK2): < 10 nM

COc1cccc(COc2cnc(NC(C)=O)cc2Nc2cc(C)nc(C(C)(F)F)n2)c1
IC50 (JH2 domain of human Tyk2; [2]): < 10 nM | IC50 (Tyk2; read-out: TYK2, MSD): 100 to 1000 nM

CCc1cc(Nc2cc(NC(C)=O)ncc2-c2ncc(C#N)cn2)nc(C(C)(F)F)n1
IC50 (JH2 domain of human Tyk2; [1]): < 10 nM | IC50 (Tyk2; read-out: TYK2): 10 to 100 nM

CC(=O)Nc1cc(Nc2cc(C)nc(C(C)(F)F)n2)c(-c2cnn(C3CCC3)c2)cn1
IC50 (JH2 domain of human Tyk2; [2]): 10 to 100 nM | IC50 (Tyk2; read-out: TYK2, MSD): > 1000 nM
